Earlier results, collected in PMC11243530, “A Bicyclic Analog of the Linear Peptide Arodyn Is a Potent and Selective Kappa Opioid Receptor Antagonist” (Molecules, 2024).

Protein sequences, listed by entry. Tags and fused reporters are not part of them. Lines headed by an entry give the natural chain unless they say otherwise; changes in a name come on top.
UniProt P34975: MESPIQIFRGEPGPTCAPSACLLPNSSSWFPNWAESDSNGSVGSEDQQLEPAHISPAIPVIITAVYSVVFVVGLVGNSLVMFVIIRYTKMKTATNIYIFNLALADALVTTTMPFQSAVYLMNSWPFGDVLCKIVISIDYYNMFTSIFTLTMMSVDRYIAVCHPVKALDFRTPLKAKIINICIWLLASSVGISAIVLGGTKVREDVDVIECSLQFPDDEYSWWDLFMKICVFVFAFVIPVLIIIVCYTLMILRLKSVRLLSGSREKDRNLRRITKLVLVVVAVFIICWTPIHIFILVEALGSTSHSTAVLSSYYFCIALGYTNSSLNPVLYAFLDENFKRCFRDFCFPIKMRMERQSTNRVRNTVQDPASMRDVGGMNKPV
UniProt P33535, whole entry: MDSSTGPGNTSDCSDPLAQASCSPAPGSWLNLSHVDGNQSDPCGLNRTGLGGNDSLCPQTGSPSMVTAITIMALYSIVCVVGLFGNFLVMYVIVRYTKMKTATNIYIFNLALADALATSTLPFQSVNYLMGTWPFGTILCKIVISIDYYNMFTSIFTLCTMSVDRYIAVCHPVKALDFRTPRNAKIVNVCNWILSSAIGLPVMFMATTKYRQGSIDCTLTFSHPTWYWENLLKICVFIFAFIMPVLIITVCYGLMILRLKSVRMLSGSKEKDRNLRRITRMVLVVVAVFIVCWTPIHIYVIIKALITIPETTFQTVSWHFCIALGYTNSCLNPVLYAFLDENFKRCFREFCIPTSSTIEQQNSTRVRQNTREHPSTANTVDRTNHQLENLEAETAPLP

Experiments:
cloned rat KOR = biological target: T1, cloned rat KOR (Rattus norvegicus, UniProt P34975); details: read-out: KOR Ki ± SEM; cited from earlier work
T1 construct: expressed in transfected cells

cloned rat MOR = biological target: T2, cloned rat MOR (Rattus norvegicus, UniProt P33535); set-up: method as in 2 sources, one per row (each row's own in cited_ref): ref [6] = [6]; PMID 12477343; doi:10.1021/jm025575g; 6. Bennett M.A. Murray T.F. Aldrich J.V. Identification of Arodyn, a Novel Acetylated Dynorphin A-(1–11) Analogue, as a κ Opioid Receptor Antagonist J. Med. Chem. 2002 45 5617 5619 10.1021/jm025575g 1 ||| ref [25] = [25]; doi:10.1007/s00044-021-02758-x; 25. Fang W.-J. Murray T.F. Aldrich J.V. Analogs of the κ Opioid Receptor Antagonist Arodyn Cyclized by Ring-Closing Metathesis Retain κ Opioid Receptor Affinity, Selectivity and κ Opioid Receptor Anta; details: used for Ki calculation (Cheng and Prusoff); unit inferred; source of the value not stated; read-out: KD of radioligand at MOR; cited from earlier work
T2 construct: expressed in transfected cells

Substance | Ki (cloned rat KOR) [nM] | Kd (cloned rat MOR) [nM]
Ac[Phe^1,2,3,Arg^4,D-Ala^8]dynorphin A-(1–11)-NH2 (FFFRLRRARPK) [arodyn] | 10 ± 3 | –
[D-Ala^2,MePhe^4, glyol]enkephalin [[^3H]DAMGO] | – | 0.49
